Data on two compounds can be found in patent US20130005644A1, “CYCLIC AGONISTS AND ANTAGONISTS OF C5A RECEPTORS AND G PROTEIN-COUPLED RECEPTORS” (PROMICS PTY LIMITED, priority 1997, published 2013).

Read-outs that look alike come from different tables or passages of the source.

In assay [1] the target is T1, C5a receptor (Homo sapiens, UniProt P21730).
T1 construct: endogenous in cells; host or cells: fresh human polymorphonuclear leukocytes (PMNs), intact cells
T1 sequence (P21730 1-350): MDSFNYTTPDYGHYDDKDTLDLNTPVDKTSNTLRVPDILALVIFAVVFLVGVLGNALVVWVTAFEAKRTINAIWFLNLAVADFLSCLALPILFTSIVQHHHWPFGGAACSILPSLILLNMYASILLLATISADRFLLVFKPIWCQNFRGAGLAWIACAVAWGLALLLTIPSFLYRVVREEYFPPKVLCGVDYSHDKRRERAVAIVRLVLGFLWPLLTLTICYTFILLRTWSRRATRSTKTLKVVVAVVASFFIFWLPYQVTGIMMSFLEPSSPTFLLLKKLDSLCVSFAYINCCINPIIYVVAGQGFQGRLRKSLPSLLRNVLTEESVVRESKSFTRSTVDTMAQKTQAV
The conditions noted are these: isolated PMN membranes; Konteatis et al (1994); read-out: IC50, competition with C5a binding; cited from earlier work.

In assay [2] the target is T1, C5a receptor. As to the kind of experiment: Myeloperoxidase release from human PMNs mediated by 100 nM C5a (antagonist potency). In kind it is cell-based.

Regarding `CN[C@@H](Cc1ccccc1)C(=O)N[C@@H](CCCCN)C(=O)N1CCC[C@H]1C(=O)N[C@H](CC1CCCCC1)C(=O)N[C@@H](Cc1c[nH]c2ccccc12)C(=O)N[C@H](CCCNC(=N)N)C(=O)O` [Compound 7, N-methylphenylalanine-lysine-proline-D-cyclohexylalanine-tryptophan-D-arginine, reference compound], the IC50 in assay [1] was 0.07 µM.

As for `CC(=O)N[C@@H](Cc1ccccc1)C(=O)N[C@H]1CCCCNC(=O)[C@@H](CCCNC(=N)N)NC(=O)[C@H](Cc2c[nH]c3ccccc23)NC(=O)[C@@H](CC2CCCCC2)NC(=O)[C@@H]2CCCN2C1=O` [Compound 11, Ac-F-[KP(dCha)Wr], the IC50 in assay [2] (50% inhibition of C5a (100 nM)-caused release of MPO from PMNs, mean ± SE, read-out: pD2 ± SE (antagonist potency) (converted)) was 0.0851 µM; in assay [2] (50% reduction in myeloperoxidase secretion from human PMNs mediated by 100 nM C5a, read-out: Antagonist Potency IC50), 0.09 µM.
